The data set has as its system HA-1 cells. The data set is described as follows: Hypoxic versus aerobic cytotoxicity from survival curves of cells in suspension culture.

Consider one molecule from patent publication EP0478545B1, “1,2,4-BENZOTRIAZINE OXIDES AS RADIOSENSITIZERS AND SELECTIVE CYTOTOXIC AGENTS” (SRI INTERNATIONAL, priority 1989, dated 1991).

With `Nc1n[n+]([O-])c2cc([N+](=O)[O-])ccc2[n+]1[O-]` [Compound 14, 7-nitro-3-amino-1,2,4-benzotriazine 1,4-dioxide], the “differential cytotoxicity against hypoxic cells compared to aerobic cells” value (HA-1 cells in vitro) was “retaining the high differential cytotoxicity”. Moreover, the “cytotoxicity against hypoxic HA-1 tumor cells in vitro” value (compared to 3-amino-1,2,4-benzotriazine 1,4-dioxide (22)) is “significantly enhanced cytotoxicity”.
